Columns and labels:
[1] = system: Ba/F3 cells expressing FLT3-ITD-D835V
[2] = system: Ba/F3 cells expressing FLT3-ITD
FLT3-ITD-F691L = FLT3-ITD-F691L (Homo sapiens (Human), UniProt P36888, F691L/INS600HVDFREYEYD); test: pFLT3 MSD assay, Ba/F3 FLT3-ITD-F691L; type: cell-based; conditions: Ba/F3 FLT3-ITD-F691L cells, 2 hours, read-out: BaF3-FLT3-ITD-F691L pFlt3 IC50
FLT3-ITD-D835V = FLT3-ITD-D835V (Homo sapiens (Human), UniProt P36888, D835V/INS600HVDFREYEYD); test: pFLT3 MSD assay, Ba/F3 FLT3-ITD-D835V; type: cell-based; conditions: Ba/F3 FLT3-ITD-D835V cells, 2 hours, read-out: BaF3-FLT3-ITD-D835V pFlt3 IC50

SMILES | IC50 [1] [nM] | IC50 [2] [nM] | IC50 (FLT3-ITD-F691L) [nM] | IC50 (FLT3-ITD-D835V) [nM]
O=C(Cc1ccc(-c2cnc3nn4c(c3c2)OC(CO)C4)cc1F)Nc1cc(C2(C(F)(F)F)CC2)on1 (stereo not drawn) [Example 98, 2-[2-fluoro-4-[2-(hydroxy-methyl)-2,3-dihydro-oxazolo[3,4]pyrazolo[1,3-b]pyridin-8-yl]phenyl]-N-[5-[1-(trifluoro-methyl)cyclopropyl]isoxazol-3-yl]acetamide] | > 50 | < 10 | > 50 | > 50
COc1cc2ncc(-c3ccc(CC(=O)Nc4cc(C5(C(F)(F)F)CC5)on4)c(F)c3)nc2cc1O [Example 157, 2-[2-fluoro-4-(7-hydroxy-6-methoxy-quinoxalin-2-yl)phenyl]-N-[5-[1-(trifluoro-methyl)cyclopropyl]isoxazol-3-yl]acetamide] | < 10 | < 10 | < 10 | < 10
COc1n[nH]c2ncc(-c3ccc(CC(=O)Nc4cc(C(C)(C)C(F)(F)F)on4)c(F)c3)cc12 [Example 63, 2-(2-fluoro-4-(3-methoxy-1H-pyrazolo[3,4-b]pyridin-5-yl)phenyl)-N-(5-(1,1,1-trifluoro-2-methylpropan-2-yl)isoxazol-3-yl)acetamide] | < 10 | < 10 | < 10 | < 10
O=C(Cc1ccc(-c2cnc3[nH]c(CO)cc3c2)cc1F)Nc1cc(C2(C(F)(F)F)CC2)on1 [Example 70, 2-(2-fluoro-4-(2-(hydroxymethyl)-1H-pyrrolo[2,3-b]pyridin-5-yl)phenyl)-N-(5-(1-(trifluoromethyl)cyclopropyl)isoxazol-3-yl)acetamide] | < 10 | < 10 | < 10 | < 10
COc1cc2cc(-c3ccc(CC(=O)Nc4cc(C5(C(F)(F)F)CC5)on4)cc3)cnc2cc1OC [Example 5, 2-(4-(6,7-dimethoxyquinolin-3-yl)phenyl)-N-(5-(1-(trifluoromethyl)cyclopropyl)isoxazol-3-yl)acetamide] | < 10 | < 10 | < 10 | < 10
COc1n[nH]c2ncc(-c3ccc(CC(=O)Nc4cc(C(C)(C)C(F)(F)F)on4)cc3)cc12 [Example 35, 2-(4-(3-methoxy-1H-pyrazolo[3,4-b]pyridin-5-yl)phenyl)-N-(5-(1,1,1-trifluoro-2-methylpropan-2-yl)isoxazol-3-yl)acetamide] | < 10 | < 10 | < 10 | < 10
COc1cc2nc(-c3ccc(CC(=O)Nc4cc(C(C)(C)C(F)(F)F)on4)c(F)c3)cnc2cc1OC1CN(C)C1 [Example 150, 2-[2-fluoro-4-[7-methoxy-6-(1-methylazetidin-3-yl)oxy-quinoxalin-2-yl]phenyl]-N-[5-(2,2,2-trifluoro-1,1-dimethyl-ethyl)isoxazol-3-yl]acetamide] | < 10 | < 10 | 10 to 20 | < 10
CNC(=O)c1cc2cc(-c3ccc(CC(=O)Nc4cc(C(C)(C)C)on4)cc3)cnc2[nH]1 [Example 65, 5-(4-(2-((5-(tert-butyl)isoxazol-3-yl)amino)-2-oxoethyl)phenyl)-N-methyl-1H-pyrrolo[2,3-b]pyridine-2-carboxamide] | < 10 | < 10 | < 10 | < 10
CC(C)(C)c1cc(NC(=O)Cc2ccc(-c3cnc4[nH]nc(-n5ccnn5)c4c3)cc2)no1 [Example 103, N-(5-tert-butylisoxazol-3-yl)-2-[4-[3-(triazol-1-yl)-1H-pyrazolo[3,4-b]pyridin-5-yl]phenyl]acetamide] | < 10 | < 10 | < 10 | < 10
COc1cc2nc(-c3ccc(CC(=O)Nc4cc(C(C)(C)C(F)(F)F)on4)c(F)c3)cnc2cc1OCCO [Example 165, 2-[2-fluoro-4-[6-(2-hydroxyethoxy)-7-methoxy-quinoxalin-2-yl]phenyl]-N-[5-(2,2,2-trifluoro-1,1-dimethyl-ethyl)isoxazol-3-yl]acetamide] | < 10 | < 10 | < 10 | < 10
O=C(Cc1ccc(-c2cnc3[nH]ccc3c2)cc1)Nc1cc(C2(C(F)(F)F)CC2)on1 [Example 18, 2-(4-(1H-pyrrolo[2,3-b]pyridin-5-yl)phenyl)-N-(5-(1-(trifluoromethyl)cyclopropyl)isoxazol-3-yl)acetamide] | < 10 | < 10 | < 10 | < 10

The next lines start with the values.

IC50 [1] [nM] | IC50 [2] [nM] | IC50 (FLT3-ITD-F691L) [nM] | IC50 (FLT3-ITD-D835V) [nM] | SMILES
< 10 | < 10 | < 10 | < 10 | CC(O)c1n[nH]c2ncc(-c3ccc(CC(=O)Nc4cc(C(C)(C)C)on4)c(F)c3)cc12 (stereo not drawn) [Example 62, N-(5-(tert-butyl)isoxazol-3-yl)-2-(2-fluoro-4-(3-(1-hydroxyethyl)-1H-pyrazolo[3,4-b]pyridin-5-yl)phenyl)acetamide]
< 10 | < 10 | < 10 | < 10 | COCCOc1n[nH]c2ncc(-c3ccc(CC(=O)Nc4cc(C(C)(C)C(F)(F)F)on4)cc3)cc12 [Example 47, 2-(4-(3-(2-methoxyethoxy)-1H-pyrazolo[3,4-b]pyridin-5-yl)phenyl)-N-(5-(1,1,1-trifluoro-2-methylpropan-2-yl)isoxazol-3-yl)acetamide]
< 10 | < 10 | < 10 | < 10 | COc1cc2ncc(-c3ccc(CC(=O)Nc4cc(C(C)(C)C)on4)cc3)nc2cc1OC [Example 6, N-(5-(tert-butyl)isoxazol-3-yl)-2-(4-(6,7-dimethoxyquinoxalin-2-yl)phenyl)acetamide]
< 10 | < 10 | < 10 | < 10 | CN1CCC(NC(=O)c2cc3cc(-c4ccc(CC(=O)Nc5cc(C(C)(C)C)on5)cc4)cnc3[nH]2)CC1 [Example 69, 5-(4-(2-((5-(tert-butyl)isoxazol-3-yl)amino)-2-oxoethyl)phenyl)-N-(1-methylpiperidin-4-yl)-1H-pyrrolo[2,3-b]pyridine-2-carboxamide]
< 10 | < 10 | < 10 | < 10 | COc1cc2cc(-c3ccc(CC(=O)Nc4cc(C(C)(C)C(F)(F)F)on4)c(F)c3)cnc2cc1OCCO [Example 91, 2-(2-fluoro-4-(7-(2-hydroxyethoxy)-6-methoxyquinolin-3-yl)phenyl)-N-(5-(1,1,1-trifluoro-2-methylpropan-2-yl)isoxazol-3-yl)acetamide]
< 10 | < 10 | 10 to 20 | 10 to 20 | COc1cc2nc(-c3ccc(CC(=O)Nc4cc(C5(C(F)(F)F)CC5)on4)c(F)c3)cnc2cc1OC1CN(C)C1 [Example 90, 2-(2-fluoro-4-(7-methoxy-6-((1-methylazetidin-3-yl)oxy)quinoxalin-2-yl)phenyl)-N-(5-(1-(trifluoromethyl)cyclopropyl)isoxazol-3-yl)acetamide]
< 10 | < 10 | < 10 | < 10 | COc1cc2ncc(-c3ccc(CC(=O)Nc4cc(C(C)(C)C(F)(F)F)on4)cc3)nc2cc1OC [Example 8, 2-(4-(6,7-dimethoxyquinoxalin-2-yl)phenyl)-N-(5-(1,1,1-trifluoro-2-methylpropan-2-yl)isoxazol-3-yl)acetamide]

Source: patent US9725465B2, “Biaryl acetamide compounds and methods of use thereof” (Ambit Biosciences Corporation, priority 2013, dated 2017)
